Measured values taken from US20080200454A1, “CARBON-LINKED TETRAHYDRO-PYRAZOLO-PYRIDINE MODULATORS OF CATHEPSIN S” (priority 2007, published 2008).

Chains of the proteins cited; added tags and fusions are not shown. Residues count along the entry.
UniProt P25774, 115-331: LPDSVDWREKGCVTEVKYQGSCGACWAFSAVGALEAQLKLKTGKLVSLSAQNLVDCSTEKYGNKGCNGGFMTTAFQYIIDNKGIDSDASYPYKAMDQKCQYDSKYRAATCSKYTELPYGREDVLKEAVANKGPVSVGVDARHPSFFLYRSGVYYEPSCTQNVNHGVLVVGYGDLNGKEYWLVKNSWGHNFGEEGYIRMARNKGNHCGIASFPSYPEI

Target: Recombinant human cathepsin S (CatS) (Homo sapiens, UniProt P25774)
Assay: Recombinant human cathepsin S (CatS) inhibition assay, fluorogenic substrate Z-Valine-Valine-Arginine-AMC;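 also: Baculovirus-expressed CatS in pH 5.0 sodium acetate buffer with DTT and NaCl, fluorescence read each minute over 20 min, inhibition derived from rate slope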

| SMILES | IC50 [µM] |
| --- | --- |
| O=C(CO)N1CCc2c(c(-c3ccc(Cl)c(C#Cc4ccc(Cl)cc4)c3)nn2CCCN2CCOCC2)C1 [Example 143, 1-[3-[4-Chloro-3-(4-chloro-phenylethynyl)-phenyl]-1-(3-morpholin-4-yl-propyl)-1,4,6,7-tetrahydro-pyrazolo[4,3-c]pyridin-5-yl]-2-hydroxy-ethanone] | 0.22 |
| CS(=O)(=O)N1CCc2c(c(-c3ccc(Cl)c(C#CCO)c3)nn2CCCN2CCOCC2)C1 [Example 44, 3-{2-Chloro-5-[5-methanesulfonyl-1-(3-morpholin-4-yl-propyl)-4,5,6,7-tetrahydro-1H-pyrazolo[4,3-c]pyridin-3-yl]-phenyl}-prop-2-yn-1-ol] | 7.85 |
